Experimental data taken from US12234230B2, “Substituted benzyl-triazole compounds for Cbl-b inhibition, and further uses thereof” (Nurix Therapeutics, Inc., priority 2019, dated 2025).

Columns and labels:
[1] = system: primary human total T-cells; assay: Primary human total T-cell activation (IL-2 secretion, CD25 surface staining), Biological Example 2; conditions: anti-CD3 and anti-CD28 co-stimulation, fold change over baseline; for CD25 staining CD3/CD28 0.3 μM: 0.3 μM inhibitor; for CD25 staining CD3/CD28 1 μM: 1 μM inhibitor
[2] = system: primary human total T-cells; assay: Primary human total T-cell activation (IL-2 secretion, CD25 surface staining), Biological Example 12; conditions: fold change over baseline, Table 12-1; for CD25 staining CD3/CD28 0.3 μM: 0.3 μM inhibitor; for CD25 staining CD3/CD28 0.3 μM / CD25 staining CD3/CD28 1 μM: anti-CD3 and anti-CD28 co-stimulation; for CD25 staining CD3/CD28 1 μM / CD25 staining CD3 1 μM: 1 μM inhibitor; for CD25 staining CD3 1 μM / CD25 staining CD3 3 μM: anti-CD3 stimulation alone; for CD25 staining CD3 3 μM: 3 μM inhibitor
[3] = system: primary human total T-cells; assay: Primary human total T-cell activation (IL-2 secretion, CD25 surface staining), Biological Example 9; conditions: fold change over baseline, Table 9-1; for CD25 staining CD3/CD28 0.3 μM: 0.3 μM inhibitor; for CD25 staining CD3/CD28 0.3 μM / CD25 staining CD3/CD28 1 μM: anti-CD3 and anti-CD28 co-stimulation; for CD25 staining CD3/CD28 1 μM / CD25 staining CD3 1 μM: 1 μM inhibitor; for CD25 staining CD3 1 μM / CD25 staining CD3 3 μM: anti-CD3 stimulation alone; for CD25 staining CD3 3 μM: 3 μM inhibitor

Compound	CD25 staining CD3/CD28 0.3 μM [1]	CD25 staining CD3/CD28 1 μM [1]	CD25 staining CD3/CD28 0.3 μM [2]	CD25 staining CD3/CD28 1 μM [2]	CD25 staining CD3 1 μM [2]	CD25 staining CD3 3 μM [2]	CD25 staining CD3/CD28 0.3 μM [3]	CD25 staining CD3/CD28 1 μM [3]	CD25 staining CD3 1 μM [3]	CD25 staining CD3 3 μM [3]
C[C@H]1CCCN(Cc2cc3c(c(C(F)(F)F)c2)CN(c2cccc([C@H](c4nncn4C)C4CCC4)c2)C3=O)C1 [Compound 3, 2-(3-((R)-cyclobutyl(4-methyl-4H-1,2,4-triazol-3-yl)methyl)phenyl)-6-(((S)-3-methylpiperidin-1-yl)methyl)-4-(trifluoromethyl)isoindolin-1-one]	A (A indicates >1.39 fold)	A (A indicates >1.39 fold)	A (A indicates >1.39 fold)	A (A indicates >1.39 fold)	A (A indicates >1.14 fold)	A (A indicates >1.14 fold)	A (A indicates >1.39 fold)	A (A indicates >1.39 fold)	A (A indicates >1.14 fold)	A (A indicates >1.14 fold)
C[C@H]1CCCN(Cc2cc3c(c(C(F)(F)F)c2)CN(c2cccc([C@]4(c5nncn5C)C[C@@H](C#N)C4)c2)C3=O)C1 [Compound 38, (1R,3s)-3-(4-methyl-4H-1,2,4-triazol-3-yl)-3-(3-(6-(((S)-3-methylpiperidin-1-yl)methyl)-1-oxo-4-(trifluoromethyl)isoindolin-2-yl)phenyl)cyclobutane-1-carbonitrile]	A (A indicates >1.39 fold)	A (A indicates >1.39 fold)	A (A indicates >1.39 fold)	A (A indicates >1.39 fold)	A (A indicates >1.14 fold)	A (A indicates >1.14 fold)	A (A indicates >1.39 fold)	A (A indicates >1.39 fold)	A (A indicates >1.14 fold)	A (A indicates >1.14 fold)
C[C@@H]1CN(Cc2cc3c(c(C(F)(F)F)c2)CN(c2cccc([C@H](c4nncn4C)C4CCC4)c2)C3=O)CCO1 [Compound 17, 2-(3-((R)-cyclobutyl(4-methyl-4H-1,2,4-triazol-3-yl)methyl)phenyl)-6-(((R)-2-methylmorpholino)methyl)-4-(trifluoromethyl)isoindolin-1-one]	–	–	C (C indicates ≤1.24 fold)	C (C indicates ≤1.24 fold)	A (A indicates >1.14 fold)	–	C (C indicates ≤1.24 fold)	C (C indicates ≤1.24 fold)	A (A indicates >1.14 fold)	–
C[C@@H]1CN(Cc2cc3c(c(C(F)(F)F)c2)CN(c2cccc([C@]4(c5nncn5C)C[C@@H](C)C4)c2)C3=O)CCC1(F)F [Compound 19, 6-(((R)-4,4-difluoro-3-methylpiperidin-1-yl)methyl)-2-(3-((1s,3S)-3-methyl-1-(4-methyl-4H-1,2,4-triazol-3-yl)cyclobutyl)phenyl)-4-(trifluoromethyl)isoindolin-1-one]	C (C indicates <1.24 fold)	C (C indicates <1.24 fold)	–	–	–	–	–	–	–	–
C[C@@H]1CN(Cc2cc3c(c(C(F)(F)F)c2)CN(c2cccc([C@]4(c5nncn5C)C[C@H](C#N)C4)c2)C3=O)CCC1(F)F [Compound 40, (1R,3r)-3-(3-(6-(((R)-4,4-difluoro-3-methylpiperidin-1-yl)methyl)-1-oxo-4-(trifluoromethyl)isoindolin-2-yl)phenyl)-3-(4-methyl-4H-1,2,4-triazol-3-yl)cyclobutane-1-carbonitrile]	A (A indicates >1.39 fold)	A (A indicates >1.39 fold)	–	–	–	–	–	–	–	–
C[C@@H]1CN(Cc2cc3c(c(C(F)(F)F)c2)CN(c2cccc(C4(c5nncn5C)CC(F)(F)C4)c2)C3=O)CCO1 [Compound 53, 2-{3-[3,3-difluoro-1-(4-methyl-1,2,4-triazol-3-yl)cyclobutyl]phenyl}-6-{[(2R)-2-methylmorpholin-4-yl]methyl}-4-(trifluoromethyl)-3H-isoindol-1-one]	A (A indicates >1.39 fold)	A (A indicates >1.39 fold)	–	–	–	–	–	–	–	–
C[C@H]1CCCN(Cc2cc3c(c(C(F)(F)F)c2)CN(c2cccc(C4(c5nncn5C)CC5(CC5)C4)c2)C3=O)C1 [Compound 42, 6-[[(3S)-3-methyl-1-piperidyl]methyl]-2-[3-[5-(4-methyl-1,2,4-triazol-3-yl)spiro[2.3]hexan-5-yl]phenyl]-4-(trifluoromethyl)isoindolin-1-one]	–	–	A (A indicates >1.39 fold)	A (A indicates >1.39 fold)	A (A indicates >1.14 fold)	A (A indicates >1.14 fold)	A (A indicates >1.39 fold)	A (A indicates >1.39 fold)	A (A indicates >1.14 fold)	A (A indicates >1.14 fold)
